Source: patent publication US9446039B2, “Aminoheteroaryl compounds as MTH1 inhibitors” (CEMM—FORSCHUNGSZENTRUM FÜR MOLEKULARE MEDIZIN GMBH, priority 2012, dated 2016)

Tests used:
MDA-MB-231 = conditions: 10 μM, versus DMSO-treated cells; KRAS G13D
MCF-7 = conditions: 10 μM, versus DMSO-treated cells

C[C@@H](Oc1cc(-c2cnn(C3CCNCC3)c2)cnc1N)c1c(Cl)ccc(F)c1Cl
growth of MDA-MB-231 in colony formation assay (MDA-MB-231): significantly decreased the growth | growth of MCF-7 in colony formation assay (MCF-7): significantly decreased the growth
